# Data as given in PubChem BioAssay AID588405 (Sanford-Burnham Center for Chemical Genomics, 2011).
# The list shows a part of the results, in another mix than the full data. The source made the active and inactive calls.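 How the source made its calls: active means inhibition of at least 50% at 20 µM; inactive means the rest.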
# Experiment: inhibition of PEG-3 promoter activity – cell-based, HeLa, luciferase luminescence, primary screen (AID 588405)
# Settings: HeLa PEG-Prom luciferase reporter, overnight, at 20 µM, active compounds read high
row,SMILES,inhibition
1,CC(C)(C)n1nnnc1C(c1ccccc1OC(F)(F)F)N1CCC(n2c(=O)[nH]c3ccccc32)CC1 (stereo not given),inactive: 44.2%
2,O=C(NCC1(N2CCCCC2)CCCCC1)c1ccc(OC(F)F)cc1,inactive: 15.5%
3,CCN1CCC(Nc2ccc(Cl)cc2)CC1,inactive: 9.72%
4,N#CC1(Nc2ccccc2)CCN(CCc2ccccc2)CC1,inactive: -6.65%
5,O=c1[nH]c2ccccc2n1C1CCN(C(c2ccccc2OC(F)(F)F)c2nnnn2C2CCCC2)CC1 (stereo not given),inactive: 27.6%
6,O=C(NCC1(N2CCCCC2)CCCCC1)c1cccc([N+](=O)[O-])c1,inactive: 15.3%
7,CSc1ccc(C(=O)NCC2(N3CCOCC3)CCCCC2)cc1,inactive: -1.31%
8,O=C(NCC1(N2CCCCC2)CCCCC1)c1cncc(Br)c1,inactive: 11.5%
9,CN1CCC(Nc2cccc(F)c2)CC1,inactive: 11.1%
10,COc1ccc(C(c2nnnn2C2CCCC2)N2CCC(n3c(=O)[nH]c4ccccc43)CC2)cc1 (stereo not given),inactive: 16.9%
11,Cc1ccc(C(=O)NCC2(N(C)C)CCCCC2)o1,inactive: -5.17%
12,CCCOc1ccc(C(=O)NCC2(N(C)C)CCCCC2)cc1OC,inactive: 0.33%
13,CCCCn1nnnc1C(c1ccccc1OC(F)(F)F)N1CCC(n2c(=O)[nH]c3ccccc32)CC1 (stereo not given),inactive: 25.5%
14,CC(C)c1ccc(NC2CCN(C(=O)OC(C)(C)C)CC2)cc1,inactive: -233%
15,COc1ccc(CN(CCCl)CCCl)cc1Cl,inactive: 11.1%
16,CN(C)c1cccc(C(=O)NCC2(N3CCCCC3)CCCCC2)c1,inactive: -5.5%
17,COc1cc(OC)c(C(=O)NCC2(N(C)C)CCCCC2)cc1OC,inactive: 4.81%
18,CCC(c1nnnn1C(C)(C)C)N1CCC(n2c(=O)[nH]c3ccccc32)CC1 (stereo not given),inactive: 2.03%
19,O=C(NCC1(N2CCOCC2)CCCCC1)c1cc(F)c(F)cc1Cl,inactive: -7.72%
20,CCCCn1nnnc1C(c1ccnc2ccccc12)N1CCC(n2c(=O)[nH]c3ccccc32)CC1 (stereo not given),inactive: 10.7%
